Tests used:
[1] = biological target: T1, Kappa-type opioid receptor (Homo sapiens, UniProt P41145); experiment: Competitive binding displacement analyses was performed from permanently transfected HEK293 cells expressing human Opioid receptor kappa 1
[2] = biological target: T2, Delta-type opioid receptor (Homo sapiens, UniProt P41143); experiment: Competitive binding displacement analyses was performed from permanently transfected HEK293 cells expressing human Opioid receptor delta 1
Mu-type opioid receptor [3] = biological target: T3, Mu-type opioid receptor (Homo sapiens, UniProt P35372); experiment: Competitive binding displacement analyses was performed from permanently transfected HEK293 cells expressing human Opioid receptor mu 1
Nociceptin receptor [4] = biological target: T4, Nociceptin receptor (Homo sapiens, UniProt P41146); experiment: Competitive binding affinity against transfected HEK293 cells expressing human Opioid receptor like 1
[5] = biological target: T1, Kappa-type opioid receptor; experiment: Competitive binding displacement analyses was performed from permanently transfected HEK293 cells expressing Opioid receptor kappa 1
Mu-type opioid receptor [6] = biological target: T3, Mu-type opioid receptor; experiment: Competitive binding displacement analyses was performed from permanently transfected HEK293 cells expressing Opioid receptor mu 1
Nociceptin receptor [7] = biological target: T4, Nociceptin receptor; experiment: Effective concentration required to stimulate binding of GTPgammaS to ORL1 receptor was determined using scintillation proximity assay
Nociceptin receptor [8] = biological target: T4, Nociceptin receptor; experiment: Competitive binding affinity against transfected HEK293 cells expressing Opioid receptor like 1
[9] = biological target: T2, Delta-type opioid receptor; experiment: Competitive binding displacement analyses was performed from permanently transfected HEK293 cells expressing Opioid receptor delta 1
Mu-type opioid receptor [10] = biological target: T3, Mu-type opioid receptor; experiment: Effective concentration required to stimulate binding of GTPgammaS to mu1 receptor was determined using scintillation proximity assay

| Compound | Ki [1] [µM] | Ki [2] [µM] | Ki (Mu-type opioid receptor [3]) [µM] | Ki (Nociceptin receptor [4]) [µM] | Ki [5] [µM] | Ki (Mu-type opioid receptor [6]) [µM] | EC50 (Nociceptin receptor [7]) [µM] | Ki (Nociceptin receptor [8]) [µM] | Ki [9] [µM] | EC50 (Mu-type opioid receptor [10]) [µM] |
| --- | --- | --- | --- | --- | --- | --- | --- | --- | --- | --- |
| O=C1NCN(c2ccccc2)C12CCN(C1CCc3ccccc3C1)CC2 (configuration not stated) | 0.0471 | 0.62 | 0.0151 | 0.0063 | – | – | – | – | – | – |
| O=C1NCN(c2ccccc2)C12CCN(C1CCCc3ccccc31)CC2 (configuration not stated) | – | – | – | – | 0.0107 | 0.0128 | 0.087 | 0.0021 | 0.48 | – |
| O=C1N(Cc2ccccc2)CN(c2ccccc2)C12CCN(C1CCc3c(Cl)ccc(Cl)c3C1)CC2 (configuration not stated) | 0.052 | 0.146 | 0.0192 | 0.0153 | – | – | – | – | – | – |
| Cc1cccc2c1CCCC2N1CCC2(CC1)C(=O)NCN2c1ccccc1 (configuration not stated) | 0.044 | 0.46 | 0.0317 | 0.0014 | – | – | 0.51 | – | – | 3.7 |
| O=C1NCN(c2ccccc2)C12CCN(C1CCc3cc(Cl)ccc3C1)CC2 (configuration not stated) | 0.149 | 1.8 | 0.077 | 0.218 | – | – | – | – | – | – |
| O=C(CN1CN(c2ccccc2)C2(CCN(C3CCc4cccc(Cl)c4C3)CC2)C1=O)c1ccccc1 (configuration not stated) | 0.0288 | 0.51 | 0.061 | 0.015 | – | – | – | – | – | – |
| O=C1NCN(c2ccccc2)C12CCN(C1CCc3ccc(Cl)cc3C1)CC2 (configuration not stated) | 0.0164 | 0.48 | 0.0109 | 0.0058 | – | – | – | – | – | – |
| O=C1NCN(c2ccccc2)C12CCN(C1CCc3cccc(Cl)c3C1)CC2 (configuration not stated) | 0.048 | 1.41 | 0.0166 | 0.0073 | – | – | – | – | – | – |
| O=C1NCN(c2ccccc2)C12CCN([C@@H]1CCCc3ccccc31)CC2 | – | – | – | – | 0.0463 | 0.0123 | – | 0.0025 | 0.53 | – |
| O=C1NCN(c2ccccc2)C12CCN([C@H]1CCCc3ccccc31)CC2 | – | – | – | – | 0.017 | 0.0133 | – | 0.0102 | – | – |
